The list shows a part of the results, in another mix than the full data. Calls of active or inactive are those of the source.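 Rule for the calls: active = compounds whose signal lies at least 3.5 SD above the mean of all wells on their plate; inactive = the rest.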

A short description of this assay: small molecules increasing insulinoma cell replication – ATP luminescence, uHTS, primary screen (AID 2380).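 Note: 0% = DMSO-treated cells in low-serum medium and 100% = 10% serum control.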 Particulars: MIN6 cells proliferation, ATPlite luminescence, 48 h; at 10 µM; stronger effect = higher value; 100% = growth in 10% serum; cells starved in 0.2% serum. A general note: Cellular ATP, detected with luciferase, serves as a proxy for viable cell number.
In the case of `C[C@@H]1C=CCP(=O)(Oc2ccccc2)O1` (stereo not given in full), the proliferation is inactive: -4.3%.

In the case of `C[C@H]1OP(=O)(Oc2ccccc2)C[C@@H]2O[C@@H]21` (stereo not given in full), the proliferation is inactive: -0.88%. Consider `CC(=O)c1ccc(N2CC2c2ccncc2)cc1` (stereo not given), for which the proliferation was inactive: 0.45%.

For the compound `CC(=O)Nc1ccc([As](=O)(O)O)c(O)c1`, the proliferation is inactive: -3.03%. For the compound `CC(=O)Nc1ccc(Oc2c([N+](=O)[O-])cc([N+](=O)[O-])cc2[N+](=O)[O-])cc1`, the proliferation was inactive: -3.51%. Take `O=C(OC1CN2CCC1CC2)c1ccc(Cl)cc1` (stereo not given): the proliferation was inactive: 0.92%.

For the compound `COc1cc(C(=O)NCC2(N3CCOCC3)CCCCC2)cc(Cl)c1OC(C)C`, the proliferation was inactive: -0.76%.

Consider `O=[As](O)(O)c1cccnc1`, for which the proliferation is inactive: -0.71%. The figure for `CS(=O)(=O)c1ccc(Cl)c(NC(=O)COC(=O)C(O)(c2ccccc2)c2ccccc2)c1` is inactive: -2.69%; for `O=[As](O)(c1cccc(O)c1)c1cccc(O)c1` it is inactive: 3.27%. Then `Cc1cccc(OCC(=O)OC2CN3CCC2CC3)c1` (stereo not given), with inactive: 1.45%.

Take `Cc1ccc(NCCc2c([N+](=O)[O-])cc([N+](=O)[O-])cc2[N+](=O)[O-])cc1`: the proliferation is inactive: 0%. The figure for `CCCOP(=S)(Nc1nc(N)cc(=O)[nH]1)OCCC` is inactive: 0.2%. Then `COc1cc(C2NCCC3(OCCO3)C2(C)C)cc(OC)c1OC` (stereo not given), with inactive: 3.29%. As to `CCOP(=O)(Nc1cccc2ccccc12)OCC`, the proliferation was inactive: -0.63%. The figure for `CCOP1(=S)c2c(C)nn(CCC#N)c2N=C(c2ccccc2F)N1C` (stereo not given) is inactive: -1.66%. The figure for `O=P(Nc1nccs1)(c1ccccc1)c1nc2ccccc2s1` (stereo not given) is inactive: -4.47%; for `O=P(Nc1nccs1)(Oc1ccccc1)Oc1ccccc1` it is inactive: -1.6%. Regarding `CS(=O)(=O)c1cc([N+](=O)[O-])c2no[n+]([O-])c2c1`, the proliferation is inactive: -4.56%. With `O=C(O)COc1ccc([As](=O)(O)O)cc1[N+](=O)[O-]`, the proliferation is inactive: -2.45%. The figure for `Nc1ccccc1[As](=O)(O)c1ccccc1` is inactive: -3.19%; for `NC(=O)Nc1ccc([As](=O)(O)O)cc1` it is inactive: -6.08%. On to `N#CCCN(C(=O)COC(=O)C(O)(c1ccccc1)c1ccccc1)c1ccc(F)cc1`, for which the proliferation is inactive: 2.45%. Regarding `CCOP1(=S)c2c(C)nn(CCC#N)c2N=C(c2ccc(F)cc2)N1C` (stereo not given), the proliferation is inactive: -0.86%.

`CN(C(=O)Cc1ccccc1)[C@@H]1CC[C@]2(CCCO2)C[C@H]1N1CCCC1`: the proliferation was inactive: -0.52%. For the compound `CN(C)C(=O)c1cc([N+](=O)[O-])cc2c1-c1c(cc([N+](=O)[O-])cc1[N+](=O)[O-])C2=O`, the proliferation is inactive: -4.21%.

As to `O=[N+]([O-])c1ccc2c(c1)nnn2O`, the proliferation is inactive: -0.21%. The figure for `CN(C(=O)Cc1ccc(Cl)c(Cl)c1)[C@H]1CC[C@@]2(CCCO2)C[C@@H]1N1CCCC1` is inactive: 4.38%; for `Cc1nn(-c2ccccc2)c2c1P(=O)(N1CCOCC1)N(C)C(c1ccccc1)=N2` (stereo not given) it is inactive: 0.04%; for `Cc1ccc(C(=O)OC2CN3CCC2CC3)cc1` (stereo not given) it is inactive: -1.15%.

Turning to `CC1CCC(C(C)C)C(OP(=O)(Nc2ccccn2)c2ccccc2)C1` (stereo not given), the proliferation was inactive: 0.18%.

Take `CN(C)C1(CNC(=O)c2ccc(S(C)(=O)=O)cc2)CCCCC1`: the proliferation was inactive: 1.63%. Then `O=C(/C=C/c1ccccc1)OC1CN2CCC1CC2` (stereo not given), with inactive: -2.31%; and `O=P1(Nc2ncccn2)COc2ccccc2OC1`, with inactive: -2.27%.

As to `Nc1cccc([As](=O)(O)c2ccccc2)c1`, the proliferation was inactive: -3.98%. Then `NS(=O)(=O)c1cccc(NC(=O)COC(=O)C(O)(c2ccccc2)c2ccccc2)c1`, with inactive: 7.06%. With `O=P1(Nc2ccc(Br)cn2)COc2ccccc2OC1`, the proliferation is inactive: -1.21%. The figure for `O=[As](O)(c1cccs1)c1cccs1` is inactive: -4.23%; for `Cc1ccc(OCC(=O)OC2CN3CCC2CC3)cc1` (stereo not given) it is inactive: -2.21%. Regarding `CCC1=CC2Cc3nc4ccc(Cl)cc4c(N)c3C(C1)C2` (stereo not given), the proliferation is inactive: -4.02%.

On to `O=P1(Nc2ccccn2)COc2ccccc2OC1`, for which the proliferation was inactive: -3.93%. On to `CCOP(=O)(NC(=NC(C)c1ccccc1)NC(C)c1ccccc1)OCC` (stereo not given), for which the proliferation is inactive: -6.01%.

Turning to `CN(CCCl)Cc1cc(Cl)c(NC2=NCCN2)c(Cl)c1`, the proliferation is inactive: -6.8%. On to `CCOP(=O)(Nc1ccc(C)cn1)OCC`, for which the proliferation is inactive: -5.72%. Then `Clc1n[nH]nc1-c1nn[nH][15n]1`, with inactive: -3.22%; and `CC(C)(C)C(=O)NC(Sc1ncccn1)C(Cl)(Cl)Cl` (stereo not given), with inactive: -2.36%.

On to `COc1ccccc1CNC(=O)COC(=O)C(O)(c1ccccc1)c1ccccc1`, for which the proliferation was inactive: 1.7%. Then `CN(C(=O)Cc1ccc(Cl)c(Cl)c1)[C@@H]1CCCC[C@H]1N1CCCC1`, with inactive: -4.25%; and `CC(C)/C=N\N=C(\N)N[N+](=O)[O-]`, with inactive: -2.63%; and `O=[As](O)(c1ccccc1Br)c1ccccc1Br`, with inactive: 0.9%. On to `CC1(CBr)Cn2c(nc3ccccc3c2=O)S1` (stereo not given), for which the proliferation is inactive: 0.09%. The figure for `COP1(=S)c2c(C)nn(CCC#N)c2N=C(c2ccc(F)cc2)N1C` (stereo not given) is inactive: -1.08%. Then `O=C(COc1ccccc1)OC1CN2CCC1CC2` (stereo not given), with inactive: 2.31%; and `O=C(Nc1ccncc1[N+](=O)[O-])c1ccc([N+](=O)[O-])cc1[N+](=O)[O-]`, with inactive: 1.09%; and `O=C(OC1CN2CCC1CC2)c1cccc([N+](=O)[O-])c1` (stereo not given), with inactive: -3.09%. Then `CCOC(=O)c1ccc(NC(=O)C(C)(CCl)SC)cc1` (stereo not given), with inactive: -1.48%; and `CCC(C)N(CC(C)C)C(=S)SC(NC(C)=O)C(Cl)(Cl)Cl` (stereo not given), with inactive: -5.51%. Turning to `CCOC(=O)Nc1ccc([As](=O)(O)O)c(O)c1`, the proliferation is inactive: 1.08%. On to `CCCCOc1ccc(C(=O)NCC2(N3CCCCC3)CCCCC2)cc1OC`, for which the proliferation is inactive: -1.61%. `Cc1cc(SC(NC(=O)c2ccccc2)C(Cl)(Cl)Cl)nc(C(C)C)n1` (stereo not given): the proliferation is inactive: -2.22%.

Take `CCOC(=O)Nc1cccc([As](=O)(O)O)c1`: the proliferation is inactive: 0.98%. Then `Cc1cc(SC(NC=O)C(Cl)(Cl)Cl)ncn1` (stereo not given), with inactive: -2.94%; and `O=P(Nc1ccccn1)(c1cccc2ccccc12)c1cccc2ccccc12`, with inactive: -1.72%; and `C[As](=O)(O)c1cccc(C(=O)O)c1`, with inactive: -1.01%. Then `O=[As](O)(c1ccc(O)cc1)c1ccccc1O`, with inactive: 0.68%; and `COc1cc(C(=O)NCC2(N3CCOCC3)CCCCC2)ccc1OCC(C)C`, with inactive: -2.95%. Consider `Cc1ccc(OP(=O)(Nc2ccc([N+](=O)[O-])cn2)Oc2ccc(C)cc2)cc1`, for which the proliferation is inactive: -2.22%.

On to `Cc1ccc2nc3c(c(C)c2c1)CC(C(Cl)Cl)S3` (stereo not given), for which the proliferation was inactive: -4.42%.

Turning to `ClCCSc1nnc(-c2cccnc2)o1`, the proliferation is inactive: -1.12%.

In the case of `CC(C)c1ccc(OP(=O)(Nc2ccccn2)Oc2ccccc2F)cc1` (stereo not given), the proliferation is inactive: 1.84%. Then `O=C(OC1CN2CCC1CC2)c1cccc2[nH]cnc12` (stereo not given), with inactive: 0.44%; and `CCN(CC)C(=S)SC(NC=O)C(Cl)(Cl)Cl` (stereo not given), with inactive: -4.22%; and `CC(C)NC(=O)NP(=O)(Oc1ccccc1)Oc1ccccc1`, with inactive: -1.74%. The figure for `O=[N+]([O-])c1cc([N+](=O)[O-])c(-c2ccn[nH]2)s1` is inactive: -5.68%; for `Cc1c2c(nc3ccccc13)SC(C(Cl)Cl)C2` (stereo not given) it is inactive: 2.95%; for `O=C(OC1CN2CCC1CC2)C12CC3CC(CC(C3)C1)C2` (stereo not given) it is inactive: 0%. The figure for `Cc1cc(=O)[nH]c(N[N+](=O)[O-])n1` is inactive: 0.08%. For the compound `COc1ccc2nc(NP(=O)(c3ccccc3)c3ccccc3)sc2c1`, the proliferation is inactive: -2.42%. The figure for `COc1cc(I)ccc1[As](=O)(O)O` is inactive: -4.37%; for `COc1ccc(N/C(=N/P(=O)(N2CCOCC2)N2CCOCC2)N2CCOCC2)cc1` it is inactive: -2.31%.

For the origin of these results see PubChem BioAssay AID2380 (Sanford-Burnham Center for Chemical Genomics, 2010).
